Here are results for one compound from patent US9018216B2, “Solid forms of (R)-2-(5-(2-(3-ethylureido)-6-fluoro-7-(tetrahydrofuran-2-yl)-1H-benzo[d]imidazol-5-yl)pyrimidin-2-yl)propan-2-yl dihydrogen phosphate and salts thereof” (priority 2012, dated 2015).

This data set can be described thus: Rat IV pharmacokinetic study. As to conditions: D5W, plasma analyte.

`CCNC(=O)Nc1nc2cc(-c3cnc(C(C)(C)O)nc3)c(F)c([C@H]3CCCO3)c2[nH]1` [Compound 23, 1-ethyl-3-[6-fluoro-5-[2-(1-hydroxy-1-methyl-ethyl)pyrimidin-5-yl]-7-[(2R)-tetrahydrofuran-2-yl]-1H-benzimidazol-2-yl]urea]: the Cmax/C0 reads like this: (Compound W IV 1 mg/kg) 247 ng/mL; (Compound W IV 5 mg/kg) 1200 ng/mL.
